Experimental data taken from patent US20250295763A1 (priority 2024, published 2025).

What was measured:
[1] = mouse, in vivo
[2] = background statement; cited from earlier work

Question: For Poly(I:C) [reference compound], which “Average body weight loss Post-dose 1 D 1” value [1] is on record?
Answer: −4.287

Question: And the “Average body weight loss Post-dose 1 D 2” value [1]?
Answer: 1.634

Question: What about the “Average body weight loss Post-dose 1 D 14” value [1] of the same substance?
Answer: 9.773

Question: And the “Average body weight loss Post-dose 2 D 15” value [1]?
Answer: −5.203

Question: And the “Average body weight loss Post-dose 2 D 16” value [1]?
Answer: −2.131

Question: And the “Average body weight loss Post-dose 2 D 21” value [1]?
Answer: −0.204

Question: With QS-21 as the substance, how does the solubility in water [2] read?
Answer: especially soluble
